In paper PMC10157364 (2023):
Substitutions are numbered along the chain they refer to.

B1: ON203 (antibody, V domains shown)
VH: EVQLQESGGGLVQPGGSLRLSCAASGFTFSIYSMNWVRQAPGKGLEWVSSIGSSGGTTYYADSVKGRFTISRDNSKNTLYLQMNSLRAEDTAVYYCAGSQYLYGMDVWGQGTTVTVSS
VL: DIQMTQSPSSLSASVGDRVTITCRSSQRIMTYLNWYQQKPGKAPKLLIYVGSHSQSGVPSRFRGSGSETDFTLTISGLQPEDSATYYCQQSFFTPLTFGGGTKVEIK
B2: ON103 (antibody, V domains shown)
VH: B1 VH
VL: B1 VL with M30L, P80S
B3: C0008 (antibody, V domains shown)
VH: B1 VH with Q5L, Y101W
VL: B1 VL with Y49F, G51A, F93W

Biological target: mouse MIF treated with 0.2% Proclin300 (oxMIF surrogate) (mouse, UniProt P34884 1-115, treated with 0.2% Proclin300 to transform MIF into an oxMIF surrogate)
Experiment: SPR

Kd [nM]	Binder
31.6	B1
28.6	B2
26.9	B3
